# Measured affinities in a library of Ab-14 heavy chain variants

Reference: Li et al. 2023, doi:10.1038/s41467-023-39022-2. File: FLAb, binding data.

Antigen: PDVDLGDISGINAS, a 14-residue peptide of the SARS-CoV-2 spike HR2 region.

Each scFv is VH, the linker GGGGSGGGGSGGGGS, VL, as in the parent Ab-14, and differs from it in the CDRs of the heavy chain only.
VH: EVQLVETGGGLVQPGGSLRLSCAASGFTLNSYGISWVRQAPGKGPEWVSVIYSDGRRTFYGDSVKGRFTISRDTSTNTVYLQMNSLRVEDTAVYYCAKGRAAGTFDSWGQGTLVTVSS
VL: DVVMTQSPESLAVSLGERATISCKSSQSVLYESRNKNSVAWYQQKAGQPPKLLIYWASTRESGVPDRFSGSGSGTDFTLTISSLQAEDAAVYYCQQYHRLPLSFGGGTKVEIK

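This is the validation round: designs drawn from the data on random variants, tested in the same kind of assay. Their group label is 14H_En_HC (En: ensemble of fine-tuned language models; HC: hill climbing; a sequence that several methods proposed may carry one label only). AlphaSeq pools MATa yeast showing the antibodies with MATalpha yeast showing the peptide. After mating in shaken culture at 30 °C for 16 h, diploids were selected and their barcode pairs sequenced. Read counts were normalised to the haploid input and turned into Kd by a linear fit to BCL2-family pairs of known affinity, for each replicate. Each pool was mated in six replicate cultures.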

Variants are written as CDR1, CDR2 and CDR3 of the heavy chain (limits as in the source). Parent: GFTLNSYGIS, VIYSDGRRTFYGDSVK, GRAAGTFDS.
Affinities are written as log10 Kd with Kd in nM; a lower number is a better binder.
Averages over replicates are reported, and they cover detected replicates only.
Where no diploid with the target was found in that replicate, the entry reads "n.d.": below detection, most likely a poor binder, though not proof of it.
As a blank, each scFv also met three strains without target: over all heavy chain designs, 1% of these pairings were detected, typically at 2.08 and seldom below 0.84. Also given: how often the same scFv was detected with the empty control strains, with their mean in brackets.

CDR-H1,CDR-H2,CDR-H3,"replicates, log10 nM",mean log10 Kd (nM),signal with controls
GFDLNEYGIS,VIYADGRRTFYSDSVK,GQNGGTFDI,-0.83 / -0.66 / -0.66 / -0.66 / -0.08 / n.d.,-0.58,0/18
GFDLNEYGIS,VIYADGRRTQYIDSVK,GNTAGTFDQ,-0.28 / 0.15 / -0.28 / -0.20 / -0.08 / 0.00,-0.12,0/18
GFDLNEYGIS,VIYADGRRTAYIDSVK,GEIAGTFDT,-0.42 / -0.44 / -0.23 / -1.24 / -1.19 / -0.09,-0.60,0/18
GFDLNEYGIS,VIYADGQRTFYVDSVK,GQVAGTFDV,-0.82 / -1.20 / -0.79 / -0.64 / -1.03 / -1.13,-0.94,0/18
GFDLDEYGIS,VIYADGRRTFYADSVK,GTNAGTFIS,n.d. / n.d. / n.d. / n.d. / n.d. / n.d.,n.d.,1/18 (1.87)
GFDLNEYGIS,VIYADGRRTSYIDSVK,GENAGTFDM,-0.45 / 0.70 / -0.53 / -0.45 / 0.62 / 0.00,-0.02,0/18
GFDLDEYGIS,VIYADGQRTFYSDSVK,GSTAGTFDV,-0.10 / -0.75 / -0.63 / -1.08 / -0.39 / -0.43,-0.56,0/18
GFDLNEYGIS,VIYADGRRTAYDDSVK,GQVAGTFDN,-0.36 / -0.55 / -0.76 / -0.87 / -0.79 / -0.56,-0.65,0/18
GFSLDEYGIS,VIYADGRRTFYADSVK,GNSAGTFDA,-0.09 / 0.10 / 0.36 / -0.31 / -0.22 / -0.10,-0.04,0/18
GFDLDEYGIS,VIYADGRRTYYADSVK,GNVAGTFDQ,-0.56 / -0.88 / -0.73 / -0.78 / -1.03 / -0.66,-0.77,0/18
GFDLNEYGIS,VIYADGMRTFYADSVK,GTAAGTFDQ,0.18 / -0.18 / -0.60 / -0.44 / -0.23 / 0.00,-0.21,0/18
GFDLNEYGIS,VIYADGLRTFYTDSVK,GEFAGTFDI,n.d. / 1.41 / 0.76 / n.d. / 2.05 / n.d.,1.40,0/18
GFDLNEYGIS,VIYADGRRTFYTDSVK,GQNAGTFDM,0.62 / n.d. / n.d. / 0.99 / 0.90 / 0.71,0.81,0/18
GFDLNEYGIS,VIYADGRRTFYSDSVK,GEIAGTFDT,1.10 / n.d. / n.d. / n.d. / n.d. / 2.30,1.70,0/18
GFDLNEYGIS,VIYADGRRTAYSDSVK,GGVAGTFDL,-0.45 / -0.91 / -0.81 / -0.73 / -0.75 / -0.51,-0.69,0/18
GFDLNEYGIS,VIYADGKRTFYSDSVK,GNHAGTFDV,-0.21 / -0.11 / -0.57 / -0.98 / -0.40 / -0.24,-0.42,0/18
GFDLNEYGIS,VIYADGRRTQYIDSVK,GKVAGTFDS,0.38 / -0.63 / 0.05 / -0.12 / -0.45 / -0.23,-0.17,0/18
GFDLDEYGIS,VIYADGRRTFYADSVK,GEAAGTFTL,-0.76 / 0.29 / 0.52 / 2.11 / -1.02 / -0.39,0.13,1/18 (-0.01)
GFDLNEYGIS,VIYADGRRTAYTDSVK,GENAGTFDQ,-0.14 / -0.41 / -0.24 / -0.30 / -0.73 / 0.09,-0.29,0/18
GFDLNEYGIS,VIYADGRRTAYTDSVK,GHAAGTFDI,-0.36 / -0.43 / -0.85 / -0.48 / -0.71 / -0.66,-0.58,0/18
GFNLNEYGIS,VIYADGRRTFYADSVK,GEVAGTFDF,-0.58 / -0.58 / -0.61 / -0.76 / -0.69 / -0.55,-0.63,0/18
GFDLNDYGIS,VIYADGMRTSYIDSVK,GEQAGTFDL,-0.14 / -0.50 / -0.58 / -0.36 / 0.13 / -0.56,-0.34,0/18
GFNLNEYGIS,VIYADGRRTFYADSVK,GGMAGTFDV,n.d. / n.d. / n.d. / n.d. / n.d. / n.d.,n.d.,0/18
GFDLNEYGIS,VIYADGSRTVYADSVK,GEVAGTFDQ,0.36 / 0.33 / 0.11 / 0.87 / 0.88 / 0.42,0.50,1/18 (3.05)
GFSLDEYGIS,VIYADGRRTFYADSVK,GNVAGTFDT,-0.37 / -0.55 / -0.67 / -0.53 / 0.21 / -0.50,-0.40,0/18
GFDLNEYGIS,VIYADGRRTAYMDSVK,GTNAGTFDQ,-0.01 / -0.69 / -0.12 / -0.15 / -0.11 / 0.12,-0.16,0/18
GFDLNEYGIS,VIYADGRRTFYSDSVK,GNAAGTFDV,-0.22 / -0.16 / -0.17 / -0.64 / -0.41 / 0.13,-0.24,0/18
GFDLNEYGIS,VIYADGRRTAYSDSVK,GGNAGTFDQ,-0.50 / -0.53 / -0.80 / -0.68 / -0.69 / -0.69,-0.65,1/18 (1.26)
GFDLDEYGIS,VIYADGKRTFYKDSVK,GSNAGTFDM,-0.14 / -0.33 / -0.50 / -0.28 / -0.63 / 0.03,-0.31,0/18
GFDLNEYGIS,VIYADGMRTAYIDSVK,GHAAGTFDV,-0.12 / -0.44 / -0.46 / -0.56 / -0.51 / -0.30,-0.40,0/18
GFDLNEYGIS,VIYADGMRTQYIDSVK,GNAAGTFDA,-0.54 / 1.19 / 0.62 / -0.29 / -0.55 / 1.23,0.28,0/18
GFDLEDYGIS,VIYADGRRTAYIDSVK,GEAAGTFDT,-0.11 / -0.23 / -0.05 / 0.60 / 1.00 / 0.48,0.28,0/18
GFDLNEYGIS,VIYADGRRTFYADSVK,GEAAGTFDN,-0.31 / -0.15 / -0.01 / -0.01 / -0.33 / 0.16,-0.11,0/18
GFDLNEYGIS,VIYADGTRTFYTDSVK,GEVAGTFDS,-0.15 / -0.76 / -0.43 / -0.97 / -0.61 / -0.48,-0.57,0/18
GFDLNEYGIS,VIYADGRRTAYIDSVK,GEIAGTFDQ,-0.65 / -0.54 / -0.84 / -0.90 / -0.69 / -0.76,-0.73,1/18 (1.42)
GFNLDEYGIS,VIYADGRRTFYADSVK,GQVAGTFDK,-0.23 / -0.47 / -0.28 / -0.94 / -0.61 / -0.67,-0.53,1/18 (2.03)
GFDLNEYGIS,VIYADGRRTAYTDSVK,GGNAGTFDQ,0.18 / -0.41 / -0.44 / -0.36 / -0.70 / -0.14,-0.31,0/18
GFSLDEYGIS,VIYADGRRTFYADSVK,GNVAGTFDF,-0.11 / -0.09 / -0.35 / -0.45 / -0.21 / -0.15,-0.23,0/18
GFNLNEYGIS,VIYADGVRTFYTDDVK,GEFAGTFDL,-0.55 / -0.44 / -0.51 / -0.53 / -0.65 / -0.36,-0.51,0/18
GFDLNEYGIS,VIYADGKRTAYIDSVK,GEVAGTFDA,-0.17 / -0.23 / -0.32 / -0.61 / 0.16 / -0.37,-0.26,0/18
GFELNEYGIS,VIYADGRRTFYTDSVK,GTNAGTFDM,-0.09 / -0.44 / -0.29 / -0.53 / -0.40 / -0.10,-0.31,0/18
GFDLEEYGIS,VIYADGRRTFYSDSVK,GEAAGTFDS,-0.31 / -0.69 / -0.31 / -0.41 / -0.43 / -0.25,-0.40,0/18
GFDLNEYGIS,VIYADGRRTSYIDSVK,GNQAGTFDS,-0.42 / -0.41 / -0.19 / -0.57 / -0.46 / -0.42,-0.41,2/18 (1.78)
GFNLDEYGIS,VIYADGRRTFYADSVK,GEVAGTFDV,-0.49 / -0.81 / -1.10 / -1.07 / -1.14 / -0.83,-0.91,0/18
GFDLEDYGIS,VIYADGRRTAYADSVK,GEAAGTFDL,0.22 / 0.14 / 0.35 / -0.04 / -0.13 / -0.15,0.06,1/18 (2.72)
GFDLNEYGIS,VIYADGRRTFYADSVK,GEAAGTFFD,0.51 / 1.15 / 0.32 / 0.39 / 0.54 / 0.53,0.57,0/18
GFDLDEYGIS,VIYADGRRTFYQDSVK,GQNAGTFDV,-0.70 / -0.73 / -1.26 / -1.12 / -1.13 / -0.91,-0.97,0/18
GFDLDEYGIS,VIYADGRRTFYTDSVK,GSNAGTFDM,0.47 / -0.04 / 0.73 / 0.76 / 0.06 / 0.46,0.41,0/18
GFDLNEYGIS,VIYADGRRTFYADSVK,GNVAGTFDA,-0.02 / -0.31 / -0.32 / -0.43 / -0.45 / -0.09,-0.27,0/18

Values of this round are not directly comparable with the first-round values of the same sequences.
In the paper, a design with two or fewer of six values counts as a poor binder.